Target: Werner syndrome protein (human (endogenous in NCCIT)) (UniProt Q14191)
Assay: co-IP

de novo DNA methyltransferase Dnmt3b (from UniProt Q9UBC3 1-853) (enzyme)
percent of chromatin-bound Dnmt3b associated with WRNp (densitometry): < 10%

Source: article PMC2910250
